Measurements as given in paper PMC7723054.
Some of the results follow.

B1: hsa-mir-3920 (structured_RNA)
RNA: GGGAGAGCUAAAAUUGCACGAAAUGCAUGGUGUACGAAGUUUCAGCUAGUACAGGUGAGAUUGUACUGGCUGAAGCUUCGUGCAC
B2: hsa-mir-3198-1 (structured_RNA)
RNA: GGGAAACGAAAAUAGAGUUUGAACGACUGGUGUACGAAGUUUCAGCAGCAGUACCAGACGGUUCUGUGGGCUGAAGCUUCGUGCAC
B3: hsa-mir-4322 (structured_RNA)
RNA: GGGAAACAUUGGACGCUAACCGUGGAGCGGUGUACGAAGUUUCAGCGUGUCGCCCCACGAGGGGGACUGUGCUGAAGCUUCGUGCAC
B4: hsa-mir-150 (structured_RNA)
RNA: GGGACUCCGUGGGUAGAAAAGACACGUUGGUGUACGAAGUUUCAGCCCAGUGCUGGGCUCAGACCCUGGGCUGAAGCUUCGUGCAC
B5: hsa-mir-3152 (structured_RNA)
RNA: GGGAAACCAGAGAUCGUGUAGGGAAUAUGGUGUACGAAGUUUCAGCCACAAGACUAGGCUUCCCUGUGGCUGAAGCUUCGUGCAC
B6: NEAT1_ParasoR_ID29 (structured_RNA)
RNA: GGGACCUGCUGAUAGUCUAAAAGCCCCGGGUGUACGAAGUUUCAGCGUGUAUGAAUUUAUAAAUCACUGGUCUUGUAAUUAAAAUUCAAACACGCUGAAGCUUCGUGCAC
B7: hsa-mir-3929 (structured_RNA)
RNA: GGGACGACUUACCUGUCGUCGGUUAGCUGGUGUACGAAGUUUCAGCAAUCCCAGCACUUUGGGAGGCUGAAGCUUCGUGCAC
B8: hsa-mir-3175 (structured_RNA)
RNA: GGGAAAACUGCAACAACGAUAGCGCUUCGGUGUACGAAGUUUCAGCACGUCUGGCCGCGUGCGCAUGUGCUGAAGCUUCGUGCAC
B9: hsa-mir-3149 (structured_RNA)
RNA: GGGACAGGUGGUAAGGUAGGCGGAAACAGGUGUACGAAGUUUCAGCCACACAUACAUAUAUAUAUGUUUGGCUGAAGCUUCGUGCAC
B10: hsa-mir-140 (structured_RNA)
RNA: GGGAACGCACUAUCCGGUACUUCCUCGGGGUGUACGAAGUUUCAGCGGUAGGUUACGUCAUGCUGUUCUACCGCUGAAGCUUCGUGCAC
B11: hsa-mir-1910 (structured_RNA)
RNA: GGGAACCAGCUGUGUACGGAUUCUACGUGGUGUACGAAGUUUCAGCCCGCCUUUGUGCUGUCCUUGGAGGGAGGGCUGAAGCUUCGUGCAC
B12: hsa-mir-6071 (structured_RNA)
RNA: GGGACCAGGCCCCGAAAGUUCGAAGAUCGGUGUACGAAGUUUCAGCAGGCUCUGGGUCCGGCUUACUCCCUAGCUUACUGUCCUCAGAACCCGCUGAAGCUUCGUGCAC
B13: NEAT1_ParasoR_ID42 (structured_RNA)
RNA: GGGAAAGUUCUCCGGCCUGGAGUCACACGGUGUACGAAGUUUCAGCAGUGUCCAUUAUGUCACUGCUGAAGCUUCGUGCAC
B14: hsa-mir-6515 (structured_RNA)
RNA: GGGAAACUGUCCCUGAAGCGGACCAGAGGGUGUACGAAGUUUCAGCGACAUCUGGGCCAACUCUGAUCUCGCUGAAGCUUCGUGCAC
B15: hsa-mir-1258 (structured_RNA)
RNA: GGGACACCGCAGGUUUGUGUCAUCAUACGGUGUACGAAGUUUCAGCAACUCCUGCGAGUCCCUGGAGUUGCUGAAGCUUCGUGCAC
B16: hsa-mir-125b-2 (structured_RNA)
RNA: GGGAACCCCACAUGUAAGAAGGAUCUACGGUGUACGAAGUUUCAGCGUGAGGUAUUUUAGUAACAUCACGCUGAAGCUUCGUGCAC
B17: hsa-mir-1292 (structured_RNA)
RNA: GGGAAUGCGUGUUGGCGAGAGUUGCAUGGGUGUACGAAGUUUCAGCGCUGAGGUUGCGUUGACGCUCGCGCUGAAGCUUCGUGCAC
B18: hsa-mir-4797 (structured_RNA)
RNA: GGGAAAGUGGUGUCGCUCAACAGUCCCUGGUGUACGAAGUUUCAGCUGAAAGGUUUUUUCUCUCAGCUGAAGCUUCGUGCAC
B19: hsa-mir-4505 (structured_RNA)
RNA: GGGAAAUGAGGACGUUCAACUAUGCUCCGGUGUACGAAGUUUCAGCCGGACACCCGGCCUCCACUUUCUGUGGCAGGUACCUCCUCCAGCUGAAGCUUCGUGCAC
B20: hsa-mir-2113 (structured_RNA)
RNA: GGGAAUUAAGCCCACGCCUAAGCCUUGUGGUGUACGAAGUUUCAGCAAAUCCCGUUAAUAAGUAAGAGGAUUUGCUGAAGCUUCGUGCAC
B21: hsa-mir-6772 (structured_RNA)
RNA: GGGAACUCCAGUUGCUGGGGAUACUACUGGUGUACGAAGUUUCAGCCUGAGGACUGAGGCUCACCUUGGCUGAAGCUUCGUGCAC
B22: hsa-mir-4785 (structured_RNA)
RNA: GGGACUCCAGCUUGAUCGAAAAUGUUGCGGUGUACGAAGUUUCAGCCUCCUCCGCUGCCGCCGGGAGAGGCUGAAGCUUCGUGCAC
B23: hsa-mir-1178 (structured_RNA)
RNA: GGGAAGCCCGUGGCCAAAUAUGUCAGUCGGUGUACGAAGUUUCAGCGCAUGCCCGCUGAAGCUUCGUGCAC
B24: hsa-mir-203a (structured_RNA)
RNA: GGGAGAUGGCAAAUGCUACGGGUUACCGGGUGUACGAAGUUUCAGCCAACAGUUCUGUAGCGCAAUUGUGGCUGAAGCUUCGUGCAC
B25: hsa-mir-6780b (structured_RNA)
RNA: GGGACUGGGCACAAGGACGUUGCAUAAAGGUGUACGAAGUUUCAGCGGAAGACACAUGAGCAGUGCCUCCACUUCACGCCUCUCCCGCUGAAGCUUCGUGCAC
B26: hsa-mir-135a-1 (structured_RNA)
RNA: GGGAAGACGGUUAUCGAUCCAUGACAUGGGUGUACGAAGUUUCAGCUAUGUGAUUCUACUGCUCACUCAUAUAGCUGAAGCUUCGUGCAC

Columns and labels:
Assay in all cases: FOREST: bead pull-down of RNA structure library v1, barcode microarray; U1A/LIN28A: 20 mM HEPES pH 7.5, 80 mM KCl, 20 mM NaCl, 10% glycerol, 2 mM DTT, 0.1 ug/uL BSA, 4 C; BG4/CIRBP/DHX36: 10 mM Tris-HCl pH 7.5, 100 mM KCl (or LiCl),; high values mean tight binding
[1] = biological target: T1, LIN28A (human?, UniProt Q9H9Z2 1-209)
T1 sequence: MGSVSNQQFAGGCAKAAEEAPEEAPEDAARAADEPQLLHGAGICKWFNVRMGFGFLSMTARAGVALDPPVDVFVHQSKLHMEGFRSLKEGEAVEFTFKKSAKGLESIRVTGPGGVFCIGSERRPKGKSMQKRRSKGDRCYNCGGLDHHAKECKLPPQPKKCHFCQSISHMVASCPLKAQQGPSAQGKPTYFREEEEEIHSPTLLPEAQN

[2] = biological target: T2, CIRBP (Homo sapiens, UniProt Q14011 1-172)
T2 sequence: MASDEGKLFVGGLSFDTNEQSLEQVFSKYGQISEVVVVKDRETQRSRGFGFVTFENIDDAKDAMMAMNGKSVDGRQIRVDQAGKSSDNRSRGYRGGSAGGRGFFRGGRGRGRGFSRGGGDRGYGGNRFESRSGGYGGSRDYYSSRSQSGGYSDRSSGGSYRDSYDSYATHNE

[3] = biological target: T3, DHX36 (Homo sapiens, UniProt Q9H2U1 1-1008)
T3 sequence: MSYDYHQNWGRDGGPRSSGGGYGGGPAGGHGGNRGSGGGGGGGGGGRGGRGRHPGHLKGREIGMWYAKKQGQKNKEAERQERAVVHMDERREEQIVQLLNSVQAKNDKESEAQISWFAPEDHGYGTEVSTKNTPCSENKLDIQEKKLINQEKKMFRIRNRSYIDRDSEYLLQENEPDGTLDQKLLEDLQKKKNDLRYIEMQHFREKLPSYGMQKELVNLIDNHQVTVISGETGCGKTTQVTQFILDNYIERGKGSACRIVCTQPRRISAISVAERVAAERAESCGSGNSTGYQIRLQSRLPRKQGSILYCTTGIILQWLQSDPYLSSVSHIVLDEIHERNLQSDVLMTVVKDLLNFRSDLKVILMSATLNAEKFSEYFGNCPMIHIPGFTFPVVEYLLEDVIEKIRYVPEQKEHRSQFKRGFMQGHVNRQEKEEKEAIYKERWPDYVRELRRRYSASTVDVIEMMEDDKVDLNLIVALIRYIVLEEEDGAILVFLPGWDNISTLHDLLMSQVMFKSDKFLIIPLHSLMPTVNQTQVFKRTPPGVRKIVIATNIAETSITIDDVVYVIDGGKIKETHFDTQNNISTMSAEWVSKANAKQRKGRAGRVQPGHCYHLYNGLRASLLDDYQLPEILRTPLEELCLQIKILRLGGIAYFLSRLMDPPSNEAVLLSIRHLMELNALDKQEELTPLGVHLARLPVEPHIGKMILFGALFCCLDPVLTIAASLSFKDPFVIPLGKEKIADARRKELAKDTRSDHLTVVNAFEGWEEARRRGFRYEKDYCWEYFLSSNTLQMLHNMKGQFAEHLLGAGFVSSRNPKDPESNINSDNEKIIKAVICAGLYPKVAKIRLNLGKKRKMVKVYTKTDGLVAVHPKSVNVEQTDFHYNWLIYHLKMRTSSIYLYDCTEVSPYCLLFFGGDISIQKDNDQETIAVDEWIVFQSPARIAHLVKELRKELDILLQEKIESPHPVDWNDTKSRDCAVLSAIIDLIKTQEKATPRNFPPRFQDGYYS

Binder | binding signal [1] [z-score] | binding signal [2] [z-score] | binding signal [3] [z-score]
B1 | -0.595 | -0.731 | -0.23
B2 | -0.597 | 0.881 | -0.672
B3 | -0.599 | 0.159 | -0.335
B4 | -0.601 | 0.0994 | -0.104
B5 | -0.601 | -0.272 | 0.288
B6 | -0.604 | 0.0867 | 0.0509
B7 | -0.606 | -0.791 | -0.823
B8 | -0.609 | 0.0179 | -1.37
B9 | -0.615 | 0.165 | 0.156
B10 | -0.621 | -0.314 | -0.65
B11 | -0.623 | -0.409 | 0.203
B12 | -0.623 | -0.452 | 0.0634
B13 | -0.623 | -0.324 | -0.124
B14 | -0.627 | 0.476 | -0.438
B15 | -0.629 | 0.309 | -0.394
B16 | -0.63 | -0.496 | -1.25
B17 | -0.632 | -0.586 | -1.21
B18 | -0.634 | -1.28 | -0.804
B19 | -0.637 | 0.0605 | -0.762
B20 | -0.642 | -0.822 | -0.859
B21 | -0.643 | -0.663 | -0.746
B22 | -0.649 | -0.164 | 0.199
B23 | -0.656 | -0.207 | -0.425
B24 | -0.658 | -0.737 | -0.145
B25 | -0.66 | 0.0459 | -0.463
B26 | -0.661 | 0.731 | -0.436
